Results: patent US4485113A (priority 1979, dated 1984)

Tested on: rat
Assay: peroral toxicity to mammals (A.O. Rat)
Conditions: for A.O. Rat. (peroral LD50): Table II; for A.O. Rat. LD50: comparison test, Table III

Compound | A.O. Rat. (peroral LD50) [mg/kg] | A.O. Rat. LD50 [mg/kg]
CN(SC(C)(CCl)CCl)C(=O)ON=C1SC(C)(C)C(=O)N1C | 343 | 
CSC(C)(C)C=NOC(=O)N(C)SC(C)(CCl)CCl | 2.5 | 
CN(SC(C)(CCl)CCl)C(=O)ON=C1CSCCS1 | 43 | 
CSC(C)=NOC(=O)N(C)SC(C)(C)CCl | 104 | 104
CC(=NOC(=O)N(C)SC(C)(CCl)CCl)SC(C)C | 174 | 174
CN(SC(C)(C)CCl)C(=O)ON=C1CSCCS1 | 24. | 
CN(SC(C)(C#N)CCl)C(=O)ON=C1CSCCS1 (stereo not drawn) | 40 | 
